# Test results as given in patent US11994512B2, “Single-cell genomic methods to generate ex vivo cell systems that recapitulate in vivo biology with improved fidelity” (Massachusetts Institute of Technology, priority 2018, dated 2024).
# Tested on: intracellular proteome of ENR+CD and ENR organoids
# Assay: LC-MS/MS TMT proteomics of ENR+CD versus ENR organoids
# Format: cell-based, C57BL/6 mice
# Text: Because PCs are highly secretory, protein-rich cells, Applicants sought to assess the total intracellular proteome between conditions through liquid chromatography mass spectrometry (LC-MS/MS)-based proteomics. Applicants quantified relative protein abundance across eight samples using isobaric mass tag labeling from four ENR and four ENR+CD samples (M1-1 through M2-2, first digit denotes biological donor, second digit denotes technical replicate) (FIG. 3A). Samples were processed and analyzed in a single 10-plex by LC-MS/MS (FIG. 9A).
# To affirm the reproducibility of the associated proteins in the ENR+CD-enriched proteome, Applicants performed relative quantification within differentiation sets.
# Mass spectrometry proteomics sample preparation, sequencing, and quantification. Organoid cell pellets were isolated from Matrigel with mechanical dissociation and washed (cold PBS 5X) to remove residual extracellular protein. Proteins were extracted from cell pellets with 8 M urea (Sigma), reduced with 5 mM DTT (Thermo Fisher Pierce) for 45 minutes, alkylated with 10 mM IAA (Sigma) for 45 minutes in the dark, and double digested with both Lysyl Endopeptidase “LysC” (Wako) and trypsin (Promega) overnight at RT. A small aliquot of cellular lysate was removed from each sample for protein quantification via the Pierce™ BCA Protein Assay Kit (Pierce). After proteolytic digestion, the samples were quenched using formic acid to a final concentration of 1.0% and subsequently desalted on 10 mg OASIS HLB solid phase columns (Waters).
# The peptides were labeled with TMT-10 isobaric mass tag reagent according to manufacturer's instructions (ThermoFisher Scientific). The peptides were labeled at a 1:8 ratio of peptide to TMT reagent, followed by 1-hour incubation at RT with bench top shaking at 850 rpm. After incubation, a […] of labeled tryptic peptide was removed from each labeled condition, desalted with C18 stage tips, and analyzed via LC-MS/MS using a Thermo Fisher Q Exactive Plus Hybrid Mass Spectrometer (QE-Plus) coupled to a Thermo Fisher EASY-nLC 1000 liquid chromatograph to ensure isobaric label incorporation >95%. An additional 1.0 μg of labeled tryptic peptide was removed from each channel, mixed together, desalted on a C18 stage tip, and analyzed via LC-MS to ensure equal relative protein loads. During these quality control steps, the labeled peptides were stored, unquenched at −80° C.
substance,measurement,setting,value
P63166,Average logFC,"protein abundance, ENR+CD versus ENR organoids, aggregate of the four sample pairs",−1.394
same,M1-1 Log2 Median Normalized,"protein abundance, ENR+CD versus ENR organoids, replicate M1-1, log2 ratio",−1.207
same,M1-2 Log2 Median Normalized,"protein abundance, ENR+CD versus ENR organoids, replicate M1-2, log2 ratio",−1.094
same,M2-1 Log2 Median Normalized,"protein abundance, ENR+CD versus ENR organoids, replicate M2-1, log2 ratio",−1.7425
same,M2-2 Log2 Median Normalized,"protein abundance, ENR+CD versus ENR organoids, replicate M2-2, log2 ratio",−1.532
same,change,"up = enriched in ENR+CD, down = enriched in ENR, FDR<0.05 and log fold change cut-off",down
